US10800786B2, “Bicyclic compounds as ATX inhibitors” (Hoffmann-La Roche Inc., priority 2015, dated 2020)

Molecular target: ATX (human His-tagged) (Homo sapiens (Human), UniProt Q13822)
Test: Human ATX enzyme inhibition assay (fluorescence quenching, MR121 substrate)
Format: biochemical
Settings: 30 nM ATX, 30° C., pH 8.0
Protocol: Human Atx Enzyme Inhibition Assay
Assay working solutions were made as follows:
Assay buffer (50 mM Tris-HCl, 140 mM NaCl, 5 mM KCl, 1 mM CaCl2, 1 mM MgCl2, 0.01% Triton-X-100, pH 8.0;
MR121 substrate solution: MR121 substrate stock solution (800 μM MR121 substrate in DMSO), diluted to 2-5× final concentration in assay buffer.
10 μL of MR121 substrate solution was added ([…] final concentration), mixed 30 times and then incubated for 15 minutes at 30° C.

Row | SMILES | IC50 [nM]
1 | O=C(c1cc(OCC2CCOCC2)nc(C2CC2)c1)N1CC2=C(C1)CN(C(=O)N1CCc3c(O)noc3C1)C2 [Example 2.01, [2-cyclopropyl-6-(oxan-4-ylmethoxy)pyridin-4-yl]-[5-(3-hydroxy-5,7-dihydro-4H-[1,2]oxazolo[5,4-c]pyridine-6-carbonyl)-1,3,4,6-tetrahydropyrrolo[3,4-c]pyrrol-2-yl]methanone] | 1
2 | CC(C)(C)C(=O)Nc1cc(Cl)cnc1COC(=O)N1CC2=C(C1)CN(C(=O)N1CCc3c(O)noc3C1)C2 [Example 2.03, [5-chloro-3-(2,2-dimethylpropanoyl amino)pyridin-2-yl]methyl 2-(3-hydroxy-5,7-dihydro-4H-[1,2]oxazolo[5,4-c]pyridine-6-carbonyl)-1,3,4,6-tetrahydropyrrolo[3,4-c]pyrrole-5-carboxylate] | 128
3 | CC(C)(C)C(=O)Nc1cc(Cl)c(Cl)nc1COC(=O)N1CC2=C(C1)CN(C(=O)N1CCc3c(O)noc3C1)C2 [Example 2.05, [5,6-dichloro-3-(2,2-dimethylpropanoylamino)pyridin-2-yl]methyl 2-(3-hydroxy-5,7-dihydro-4H-[1,2]oxazolo[5,4-c]pyridine-6-carbonyl)-1,3,4,6-tetrahydropyrrolo[3,4-c]pyrrole-5-carboxylate] | 7
4 | CC(C)(C)C(=O)Nc1cc(C(F)(F)F)cnc1COC(=O)N1CC2=C(C1)CN(C(=O)N1CCc3c(O)noc3C1)C2 [Example 2.06, [3-(2,2-dimethylpropanoylamino)-5-(trifluoromethyl)pyridin-2-yl]methyl 2-(3-hydroxy-5,7-dihydro-4H-[1,2]oxazolo[5,4-c]pyridine-6-carbonyl)-1,3,4,6-tetrahydropyrrolo[3,4-c]pyrrole-5-carboxylate] | 5
5 | O=C(c1cc(OCC(F)(F)F)nc(C2CC2)c1)N1CC2=C(C1)CN(C(=O)N1CCc3c(O)noc3C1)C2 [Example 2.09, [2-cyclopropyl-6-(2,2,2-trifluoroethoxy)pyridin-4-yl]-[5-(3-hydroxy-5,7-dihydro-4H-[1,2]oxazolo[5,4-c]pyridine-6-carbonyl)-1,3,4,6-tetrahydropyrrolo[3,4-c]pyrrol-2-yl]methanone] | 10
6 | Cc1nnn(Cc2cc(C(F)(F)F)ccc2CCC(=O)N2CC3=C(C2)CN(C(=O)N2CCc4c(O)noc4C2)C3)n1 [Example 2.10, 1-[5-(3-hydroxy-5,7-dihydro-4H-[1,2]oxazolo[5,4-c]pyridine-6-carbonyl)-1,3,4,6-tetrahydropyrrolo[3,4-c]pyrrol-2-yl]-3-[2-[(5-methyltetrazol-2-yl)methyl]-4-(trifluoromethyl)phenyl]propan-1-one] | 9
7 | O=C(c1cnc(OCC(F)(F)F)c(C2CC2)c1)N1CC2=C(C1)CN(C(=O)N1CCc3c(O)noc3C1)C2 [Example 2.11, [5-cyclopropyl-6-(2,2,2-trifluoroethoxy)pyridin-3-yl]-[5-(3-hydroxy-5,7-dihydro-4H-[1,2]oxazolo[5,4-c]pyridine-6-carbonyl)-1,3,4,6-tetrahydropyrrolo[3,4-c]pyrrol-2-yl]methanone] | 12
8 | O=C(c1cc(OCC2CCCCC2)nc(C2CC2)c1)N1CC2=C(C1)CN(C(=O)N1CCc3c(O)noc3C1)C2 [Example 2.15, [2-(cyclohexylmethoxy)-6-cyclopropylpyridin-4-yl]-[5-(3-hydroxy-5,7-dihydro-4H-[1,2]oxazolo[5,4-c]pyridine-6-carbonyl)-1,3,4,6-tetrahydropyrrolo[3,4-c]pyrrol-2-yl]methanone] | 1
9 | O=C(c1cc(OCC2CCOCC2)nc(C2CC2)c1)N1CC2=C(CC(C(=O)N3CCc4c(O)noc4C3)C2)C1 [Example 7.00, [2-Cyclopropyl-6-(oxan-4-ylmethoxy)pyridin-4-yl]-[5-(3-hydroxy-5,7-dihydro-4H-[1,2]oxazolo[5,4-c]pyridine-6-carbonyl)-3,4,5,6-tetrahydro-1H-cyclopenta[c]pyrrol-2-yl]methanone] | 5
